Values of other authors in US8415362B2, “Pyrazolyl substituted pyrrolo[2,3-b]pyrimidines as Janus kinase inhibitors” (Incyte Corporation, priority 2005, dated 2013).

Conditions: some patients

Erbitux: "new targeted anti-cancer agents such as Iressa, Erbitux, and Tarceva"
acneiform rash: induced acneiform rash
